Results on two compounds are retold here after BindingDB's records for doi:10.1016/s0022-2836(03)00399-1 (Celera, 2003).

The chains behind the UniProt entries cited, without tags or fusion partners. Residues count along the entry.
UniProt P00742, 41-179 limits assumed: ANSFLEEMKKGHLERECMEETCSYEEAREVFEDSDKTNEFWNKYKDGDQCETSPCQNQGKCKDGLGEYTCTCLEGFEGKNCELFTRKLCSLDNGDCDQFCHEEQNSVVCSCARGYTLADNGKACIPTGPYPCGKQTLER
UniProt P00742, 235-488 limits assumed: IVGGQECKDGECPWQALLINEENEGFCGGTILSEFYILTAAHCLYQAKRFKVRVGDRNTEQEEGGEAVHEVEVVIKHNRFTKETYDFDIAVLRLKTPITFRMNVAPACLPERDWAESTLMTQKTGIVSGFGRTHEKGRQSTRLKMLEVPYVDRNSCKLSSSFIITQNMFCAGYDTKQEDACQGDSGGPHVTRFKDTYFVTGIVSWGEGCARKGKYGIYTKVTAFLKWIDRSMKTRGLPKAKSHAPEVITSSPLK

This test deals with Coagulation factor X (Homo sapiens, UniProt P00742). As to the kind of experiment: Enzyme Assay and Determination of the Inhibition Constants.

As to `N=C(N)c1cc2cc(-c3cccc(-c4ccccc4)c3O)[nH]c2cc1F` [CA-12], the Ki was found to be 980 nM.
The same measure for `N=C(N)c1ccc2nc(-c3cccc(-c4ccccc4)c3O)[nH]c2c1` [2-{5-[amino(iminiumyl)methyl]-1H-1,3-benzodiazol-2-yl}-6-phenylbenzen-1-olate]: 1600 nM.
